This data set is described as follows: Solubility in water, checked by filtration on a 0.45 μm syringe filter. The settings on record: composition with NaI content ≤2.5%.

As for “1H-benz[e]indole, 2-[7-[1,3-dihydro-1,1-dimethyl-3-(4-sulfobutyl)-2H-benz[e]indol-2-ylidene]-1,3,5-heptatrienyl]-1,1-dimethyl-3-(4-sulfobutyl) hydroxide, inner salt, sodium salt [compound of formula (I)]”, the soluble in water result is on record as “up to 5 mg/ml”.

For the origin of these results see US20240158639A1, “PROCESS FOR PREPARING INDOCYANINE GREEN” (ICROM Srl, priority 2021, published 2024).
